IC50 data for 4 compounds are collected here from the Kinase Knowledgebase extract (Sharma et al. 2016).

Chains of the proteins cited; added tags and fusions are not shown.
UniProt Q16539, whole entry, looked up: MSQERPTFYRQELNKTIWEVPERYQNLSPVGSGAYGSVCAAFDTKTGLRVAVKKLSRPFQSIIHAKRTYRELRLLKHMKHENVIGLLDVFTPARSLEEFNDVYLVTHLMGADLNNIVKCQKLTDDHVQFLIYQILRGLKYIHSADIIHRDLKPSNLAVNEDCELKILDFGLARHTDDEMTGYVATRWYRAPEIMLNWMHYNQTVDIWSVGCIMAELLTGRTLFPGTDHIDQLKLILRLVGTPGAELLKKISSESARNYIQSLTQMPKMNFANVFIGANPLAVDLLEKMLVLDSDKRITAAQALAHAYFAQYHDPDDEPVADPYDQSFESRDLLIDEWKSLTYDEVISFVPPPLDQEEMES

The term IC50 denotes the midpoint of a concentration-inhibition curve. Read a low IC50 as inhibition by little substance.

The structures appear in SMILES notation.

The target in the experiment is MAPK14 (UniProt Q16539). As to the kind of experiment: Enzyme Assay.
Consider `Nc1ncccc1OCc1cccc2ccccc12`, for which the IC50 was less than 200 µM.
Then `OCCNc1ccc(OCc2c(Cl)cccc2Cl)cn1`, with less than 200 µM; and `c1ccc(COc2cccnc2)cc1`, with less than 2000 µM.
Compound `CC(C)(CO)Nc1ccc(OCc2c(Cl)cccc2Cl)cn1` yielded an IC50 of less than 200 µM.
